From US20160081959A1, “METHOD OF USING ARGININE SILICATE INOSITOL COMPLEX FOR WOUND HEALING OR REPAIR” (Glanbia plc, priority 2014, published 2016)

Experiment: Human clinical PK/PD/safety study of Nitrosigine (plasma arginine, serum silicon)
Format: in vivo
Text: See, Kalman D, Feldman S, Samson A, Krieger D., “A clinical evaluation to determine the safety, pharmacokinetics and pharmacodynamics of an inositol-stabilized arginine silicate dietary supplement in healthy adult males,” The FASEB Journal (April 2014) 28(1 Suppl.): LB418.
Purpose: The purpose of this study was to characterize the PK/PD of Nitrosigine®, an inositol-stabilized arginine silicate dietary supplement.
Type: Prospective, pharmacokinetic (PK)/pharmacodynamic (PD)/safety clinical trial.
Dosing: Nitrosigine® was administered as daily doses of 1,500 mg (3×500 mg tablets). Study subjects were supplied with ASI tablets and instructed to take 3×500 mg tablets with 8 ounces of water at the first treatment visit (Visit 2) and then continue taking this dose daily for 14 days.
Visit 2: single dose evaluation (0-6 hrs), 1500 mg—this was also utilized as the first dose of the 14 day study. It is noted in addition that Visit 2 is also the beginning of the 14 day study, during which subjects take product once a day for 14 days.
Visit 3: 14 days later, single dose (0-6 hrs)
PK Measurements: Plasma arginine and serum silicon levels were measured after the first dose on Day 1 and again after a dose taken on Day 14, after 14 days of dosing. […] (P=0.002); Tmax Day 1: 1.05±0.50 hr.

Substance: arginine silicate inositol [ASI]
- increase of mean plasma arginine relative to baseline (after 1 hour, single dose 1,500 mg, human): greater than 35%
- change in plasma arginine (and serum silica) from baseline, in words (human subjects, single dose of ASI): significant increases in both plasma arginine and serum silica for up to three hours after use; also recorded: statistically significant increases in plasma arginine from baseline at 0.5, 1, 1.5, 2, 3, and 5 hours
- Arginine absorption: time after which increase is significant (plasma arginine, 1,500 mg oral, P=0.002): 0.5 h
- Silicon absorption: time after which increase is significant (serum silicon, 1,500 mg oral, P=0.002): 1 h

Entries after “also recorded” stand apart in the source; their conditions may differ.
